Assay results as given in US11147819B2, “EZH2 inhibitors for treating cancer” (Epizyme, Inc., priority 2016, dated 2021).

Test system: mutant EZH2 DLBCL cell lines
Assay: Apoptosis and differentiation in DLBCL cell lines
Format: cell-based
Settings: cells with mutant EZH2

## CCN(c1cc(-c2ccc(CN3CCOCC3)cc2)cc(C(=O)NCc2c(C)cc(C)[nH]c2=O)c1C)C1CCOCC1 [tazemetostat]
  apoptosis following treatment: undergo apoptosis
